Columns and labels:
Type in all cases: in vivo, human
[1] = system: PV patients; experiment: PROUD-PV/CONTINUATION-PV phase III study: complete hematologic response (CHR); conditions: for Complete hematologic response Responder % / Complete hematologic response Responder/N: discontinued patients counted as non-responders
Text: Cytoreduction-naïve or HU-pre-treated patients aged ≥18 years diagnosed with PV according to WHO 2008 criteria were eligible. […] The PROUD-PV study was a randomized, open-label, multicenter, controlled, parallel arm, phase III study assessing the efficacy and safety of ropeg versus HU in PV patients.
(§1) In the ongoing extension phase (CONTINUATION-PV or CONTI-PV), patients in the HU arm were permitted to switch to best available treatment. Efficacy assessments included a longitudinal analysis of complete hematological response and complete molecular response, defined by modified ELN criteria. Discontinued patients were considered non-responders. Data were analyzed for patients reaching 48 months and 60 months of treatment.
Long-term disease responses were presented as complete hematologic response (CHR) alone or in relation to spleen size. CHR includes hematocrit <45% (without phlebotomy for at least 3 months), platelet count <400×10^9/L, white blood cell count <10×10^9 cells/L, with or without normal spleen size (measured via ultrasound; ≤12 cm for females, ≤13 cm for males), and absence of thromboembolic events.
Efficacy analysis included CHR, spleen normality, and improvement in disease burden such as disease-related signs and symptoms.

[2] = system: JAK2V617F allele burden; experiment: PROUD-PV/CONTINUATION-PV: JAK2V617F allele burden and molecular response (real-time PCR)
[3] = system: PV patients; experiment: PROUD-PV/CONTINUATION-PV: combined analysis of hematologic and molecular parameters
Description: as §1
A further analysis of combined hematologic and molecular parameters was performed, these being known to influence the risk of thrombosis and of progression in PV.

[4] = system: PV patients; experiment: PROUD-PV/CONTINUATION-PV: safety, thromboembolic events, disease progression
[5] = month 12 (EOT in PR), LOCF table
[6] = 60 months, only patients with baseline value ≥10%
[7] = AEs of special interest to interferon therapy, 4th year data
[8] = entire treatment period (5-year analysis)

## ropeginterferon alpha-2b
[1]; 52-month observation period
  Median duration of maintenance of CHR: median was not reached
[1]; among discontinued patients
  Discontinued patients showing CHR at their last visits: 68%
[1]; at the 4-year and 5-year treatment
  Percentage of phlebotomy-free patients vs control (FIG. 2): significant greater percentage
[1]; fifth year of treatment
  Patients with hematocrit <45% maintained without the need for phlebotomy: 81.8%
[1]; in the 4th year
  Rate of patients in CHR: 60.6%
[1]; in vivo
  Maintenance periods of longest CHR with no increase in spleen size and longest CHR with normal spleen size, vs control: Longer maintenance periods
[1]; [5]
  CHR RR [95% CI] (Ropeg/Control): 0.85 (0.70-1.04)
  CHR Responder %: 62.1%
  CHR Responder N: 59
[1]; month 12 (EOT in PR), discontinued = non-responders
  CHR RR [95% CI] (Ropeg/Control): 0.85 (0.70-1.05)
[1]; month 12 (EOT in PR)
  Complete hematologic response Responder %: 62.1%
  Complete hematologic response Responder/N: 59/95
[1]; month 24 (LOCF)
  CHR RR [95% CI] (Ropeg/Control): 1.27 (1.02-1.60)
  CHR Responder %: 73.7%
  CHR Responder N: 70
[1]; month 24, discontinued = non-responders
  CHR RR [95% CI] (Ropeg/Control): 1.41 (1.07-1.84)
[1]; month 24
  Complete hematologic response Responder %: 70.5%
  Complete hematologic response Responder/N: 67/95
[1]; month 36 (LOCF)
  CHR RR [95% CI] (Ropeg/Control): 1.43 (1.13-1.81)
  CHR Responder %: 76.8%
  CHR Responder N: 73
[1]; month 36, discontinued = non-responders
  CHR RR [95% CI] (Ropeg/Control): 1.39 (1.08-1.78)
[1]; month 36
  Complete hematologic response Responder %: 70.5%
  Complete hematologic response Responder/N: 67/95
[1]; month 48 (LOCF)
  CHR RR [95% CI] (Ropeg/Control): 1.46 (1.13-1.89)
  CHR Responder %: 71.6%
  CHR Responder N: 68
[1]; month 48, discontinued = non-responders
  CHR RR [95% CI] (Ropeg/Control): 1.39 (1.04-1.86)
[1]; month 48
  Complete hematologic response Responder %: 60.6%
  Complete hematologic response Responder/N: 57/94
[1]; month 60
  CHR Non-Responder %: 44.2%
  CHR Non-Responder/N: 42/95
  Not meeting CHR because of Hct and platelets, % of non-responders: 7.1%
  Not meeting CHR because of Hct and platelets, patients: 3
  Not meeting CHR because of hematocrit (Hct), % of non-responders: 28.6%
  Not meeting CHR because of hematocrit (Hct), patients: 12
  Not meeting CHR because of platelets, % of non-responders: 4.8%
  Not meeting CHR because of platelets, patients: 2
  Not meeting CHR because of premature discontinuation, % of non-responders: 59.5%
  Complete hematologic response Responder %: 55.8%
  Complete hematologic response Responder/N: 53/95
[1]; month 60 (LOCF)
  CHR RR [95% CI] (Ropeg/Control): 1.43 (1.12-1.81)
  CHR Responder %: 72.6%
  CHR Responder N: 69
[1]; month 60, discontinued = non-responders
  CHR RR [95% CI] (Ropeg/Control): 1.30 (0.95-1.77)
[2]; 48 months
  Additional patients achieving an allele burden <10%: 34
  Patients with JAK2V617F <1%: 13
  Patients with JAK2V617F <1% and CHR: 11
  Patients with JAK2V617F <1% and CHR, %: 11.7%
  Patients with JAK2V617F <1%, %: 13.8%
  Patients with JAK2V617F ≥1 to <10%: 34
  Patients with JAK2V617F ≥1 to <10% and CHR: 24
  Patients with JAK2V617F ≥1 to <10% and CHR, %: 25.5%
  Patients with JAK2V617F ≥1 to <10%, %: 36.2%
[2]; [6]
  JAK2V617F undetectable and CHR: 4/5
  JAK2V617F ≥0.01% to <1% and CHR: 9/10
  JAK2V617F ≥1 to <10% and CHR: 19/22
  Total patients with JAK2V617F <10%, %: 53%
[2]; Baseline
  JAK2V617F allele burden, mean: 42.8%
  JAK2V617F allele burden, median: 37.3%
[2]; at 5 years
  Molecular response RR (ropeg vs control): 3.2
  Rate of molecular response: 69.1%
[2]; at 48 months
  Molecular response RR (ropeg vs control): 2.5
  Rate of molecular response (partial or complete): 67.0%
[2]; at baseline
  Median JAK2V617F allele burden: 37.3%
[2]; [5]
  Molecular response Responder %: 43.6%
  Molecular response Responder/N: 41/94
[2]; month 12, LOCF table
  JAK2V617F allele burden RR [95% CI] (Ropeg/Control): 6.646 (0.86 to 12.43)
  JAK2V617F allele burden, mean: 30.2%
  JAK2V617F allele burden, median: 24.4%
[2]; month 24 (LOCF)
  JAK2V617F allele burden RR [95% CI] (Ropeg/Control): −10.745 (−16.50 to −4.98)
  JAK2V617F allele burden, mean: 20.9%
  JAK2V617F allele burden, median: 14.3%
  Molecular response Responder %: 68.1%
  Molecular response Responder/N: 64/94
[2]; month 36 (LOCF)
  JAK2V617F allele burden RR [95% CI] (Ropeg/Control): −18.722 (−24.49 to −12.96)
  JAK2V617F allele burden, mean: 19.7%
  JAK2V617F allele burden, median: 11.3%
  Molecular response Responder %: 66.0%
  Molecular response Responder/N: 62/94
[2]; month 48
  Patients with JAK2V617F allele burden below the threshold of 1% (CMR): 13
  Patients with allele burden below 1% who also had a CHR: 11
[2]; month 48 (LOCF)
  JAK2V617F allele burden, mean: 19.3%
  JAK2V617F allele burden, median: 9.2%
  Molecular response Responder %: 67.0%
  Molecular response Responder/N: 63/94
[2]; month 60
  Patients with allele burden below 0.01%: 5
  Patients with allele burden below 1%: 10
  Patients with allele burden below 1% or below 0.01% who also had CHR: 14
[2]; month 60 (LOCF)
  JAK2V617F allele burden, mean: 18.9%
  JAK2V617F allele burden, median: 8.5%
  Molecular response Responder %: 69.1%
  Molecular response Responder/N: 65/94
[2]; over 4 years
  Median JAK2V617F allele burden: 9.8%
[2]; over 5 years of treatment
  Median JAK2V617F allele burden: 7.3%
[2]; per year during the study period
  Rate of patients with allele burden >50% (FIG. 3): declined steadily
[3]; at the 5 year visit
  Combined hematocrit control and molecular response RR: 3.52
  Patients with well-controlled hematocrit (<45%) without phlebotomy and a molecular response: 58.5%
[3]; month 12 (EOT in PR)
  Combined analysis RR [95% CI] (Ropeg/Control): 0.73 (0.50-1.06)
  Combined hematologic and molecular parameters Responder %: 33.0%
  Combined hematologic and molecular parameters Responder/N: 31/94
[3]; month 24 (LOCF)
  Combined analysis RR [95% CI] (Ropeg/Control): 2.26 (1.46-3.50)
  Combined hematologic and molecular parameters Responder %: 55.3%
  Combined hematologic and molecular parameters Responder/N: 52/94
[3]; month 36 (LOCF)
  Combined analysis RR [95% CI] (Ropeg/Control): 2.17 (1.43-3.29)
  Combined hematologic and molecular parameters Responder %: 57.5%
  Combined hematologic and molecular parameters Responder/N: 54/94
[3]; month 48 (LOCF)
  Combined analysis RR [95% CI] (Ropeg/Control): 2.79 (1.74-4.46)
  Combined hematologic and molecular parameters Responder %: 57.5%
  Combined hematologic and molecular parameters Responder/N: 54/94
[3]; month 60 (LOCF)
  Combined analysis RR [95% CI] (Ropeg/Control): 3.26 (1.97-5.42)
  Combined hematologic and molecular parameters Responder %: 58.5%
  Combined hematologic and molecular parameters Responder/N: 55/94
[4]; 2nd year
  Rate of major thromboembolic adverse events, % of patients: 0.0%
[4]; 3rd year
  Rate of major thromboembolic adverse events, % of patients: 0.0%
[4]; 4-year analysis
  Disease-related transformation to myelofibrosis: One case
[4]; 4th year
  Rate of major thromboembolic adverse events, % of patients: 1.1%
[4]; [7]
  Endocrine disorders, patients with treatment-related event, total for SOC: 5
  Endocrine disorders, total for SOC, %: 3.9%
  Immune system disorders, total for SOC, %: 0.8%
  Musculoskeletal/connective tissue disorders, patients with treatment-related event, total for SOC: 2
  Musculoskeletal/connective tissue disorders, total for SOC, %: 1.6%
  Psychiatric disorders, total for SOC, %: 0.8%
  Skin/subcutaneous tissue disorders, patients with treatment-related event, total for SOC: 2
  Skin/subcutaneous tissue disorders, total for SOC, %: 1.6%
[4]; entire 4-year study period
  Patients with adverse events (AEs): 89.8%
  Patients with serious adverse events (SAEs): 20.5%
  Patients with treatment related SAEs: 2.4%
  Patients with treatment-related AEs: 75.6%
  Patients with treatment-related AEs ≥ grade 3: 15.0%
[4]; entire 5 year treatment period
  Major thromboembolic events, number: 6
[4]; entire treatment period
  Major thromboembolic adverse events per patient-year: 1.2 %-patient year
  Patients with a major thromboembolic adverse event: 4.2%
  Rate of grade ≥3 drug-related adverse events: 16.5%
[4]; [8]
  Adverse drug reactions (ADRs), % of patients: 78.7%
  Adverse drug reactions (ADRs), patients: 100
  Adverse events (AEs), % of patients: 91.3%
  Adverse events (AEs), patients: 116
  Grade 3, 4 or 5 ADRs, % of patients: 16.5%
  Grade 3, 4 or 5 ADRs, patients: 21
  Serious adverse events (SAEs), % of patients: 23.6%
  Serious adverse events (SAEs), patients: 30
  Treatment-related SAEs, % of patients: 3.1%
  Treatment-related SAEs, patients: 4
[4]; fifth year
  Patients reporting grade ≥3 treatment-related adverse events: Three patients
  Patients reporting grade ≥3 treatment-related adverse events, %: 3.8%
  Patients who withdrew due to drug-related toxicity: one patient
  Patients with treatment-related adverse events: 25.6%
[4]; fifth year of treatment
  Adverse drug reactions (ADRs), % of patients: 25.6%
  Adverse drug reactions (ADRs), patients: 20
  Adverse events (AEs), % of patients: 57.7%
  Grade 3, 4 or 5 ADRs, % of patients: 3.8%
  Grade 3, 4 or 5 ADRs, patients: 3
  Serious adverse events (SAEs), % of patients: 10.3%
  Serious adverse events (SAEs), patients: 8
  Treatment-related SAEs, % of patients: 1.3%
[4]; fifth year, AEs of special interest to interferon therapy
  Additional cases of hypothyroidism compared to the 4th year data: only one additional case
[4]; in the 4th year
  Rate of patients with treatment-related adverse events: 28.7%

Source: patent US20220152156A1, “METHOD OF USING PEGYLATED INTERFERON-ALPHA” (PharmaEssentia Corporation, priority 2020, published 2022)
